Source: PubChem BioAssay AID1029 (Sanford-Burnham Center for Chemical Genomics, 2008)
The entries are a selection whose mix differs from that of the whole data set. Active and inactive are the calls of the source.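 Rule for the calls: active = inhibition above the mean of the plate negative controls plus 5 SD (cut at about 13% in these data); inactive = the rest.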

Experiment: inhibitors of macrophage phagocytosis, primary screen, imaging, J774A.1 cells, IgG beads (AID 1029);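 note: phagocytic index as fraction of beads internalized from green versus red external bead signal; plate controls were DMSO negative control for no effect and cytochalasin-D positive control for full effect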
Details: J774A.1 macrophage IgG-bead phagocytosis, at 5 µM, active compounds read high

Structure (SMILES)	inhibition
Cc1ccc(C)c(NP(C)(=O)Oc2ccccc2)c1 (stereo not drawn)	inactive: -0.2%
Cc1cc(C)cc(OP(C)(=O)Nc2ccccn2)c1 (stereo not drawn)	inactive: -1.3%
CCOC(=O)c1ccc(NP(C)(=O)Oc2cc(C)cc(C)c2)cc1 (stereo not drawn)	inactive: -9.18%
Cc1cc(C)cc(OP(C)(=O)Nc2ccc(C)cc2C)c1 (stereo not drawn)	inactive: 0.2%
Cc1nc2ccc3ccccc3c2s1.O=[N+]([O-])c1cc([N+](=O)[O-])c(O)c([N+](=O)[O-])c1	inactive: -0.4%
CP(=O)(Nc1ccc(SC(F)(F)F)cc1)Oc1ccccc1 (stereo not drawn)	inactive: 1.33%
CN1CCCCC1COC(=O)C1(O)c2ccccc2CCc2ccccc21 (stereo not drawn)	inactive: -5.85%
CP(=O)(Nc1ccccc1Br)Oc1ccccc1 (stereo not drawn)	inactive: -2.53%
CP(=S)(Nn1cnnc1)Oc1ccccc1 (stereo not drawn)	inactive: -1.3%
CP(=O)(Nc1ccccn1)Oc1ccc(Cl)cc1 (stereo not drawn)	inactive: 0.6%
CCOP(C)(=S)SCC(=O)NC(C)C(=O)O (stereo not drawn)	inactive: 0.1%
Cc1cc(C)cc(OP(C)(=O)Nc2ccc(SC(F)(F)F)cc2)c1 (stereo not drawn)	inactive: -7.61%
Cc1cccc(C)c1OP(C)(=O)Nc1ccc(SC(F)(F)F)cc1 (stereo not drawn)	inactive: -10.5%
COc1ccc(OP(C)(=O)Nc2cccc(F)c2)cc1 (stereo not drawn)	inactive: 0.6%
COc1ccccc1OP(C)(=O)Nc1ccc(C)cc1 (stereo not drawn)	inactive: -0.6%
Cc1ccc(NP(C)(=O)Oc2ccccc2)c(C)c1 (stereo not drawn)	inactive: 0.6%
CCOC(=O)c1ccc(NP(C)(=O)Oc2ccccc2)cc1 (stereo not drawn)	inactive: 1.68%
CC(C)(C)c1ccc(OP(C)(=O)Nc2ccc(SC(F)(F)F)cc2)cc1 (stereo not drawn)	inactive: -8.04%
Cc1nc2ccc3ccccc3c2o1.O=[N+]([O-])c1cc([N+](=O)[O-])c(O)c([N+](=O)[O-])c1	inactive: 0.9%

Structure (SMILES)	inhibition
COc1ccccc1OP(C)(=O)Nc1ccc(C)c(C)c1 (stereo not drawn)	inactive: -0.1%
CP(=O)(Nc1ccccn1)Oc1ccccc1 (stereo not drawn)	inactive: -1.2%
COc1ccc(OP(C)(=O)Nc2ccccn2)cc1 (stereo not drawn)	inactive: -0.6%
CN(C)CCOC(=O)C(O)(c1ccccc1)C1CCCC1 (stereo not drawn)	inactive: 1%
CC(C)(C)c1ccc(OP(C)(=O)O)cc1	inactive: -1%
COc1ccccc1OP(C)(=O)Nc1c(C)n(C)n(-c2ccccc2)c1=O (stereo not drawn)	inactive: 0.2%
CP(=O)(Oc1ccccc1)N1CCOC1=O (stereo not drawn)	inactive: -0.4%
CCN(CC)CC(O)COC(=O)C(O)(c1ccccc1)C1CCCCC1 (stereo not drawn)	inactive: 0.1%
COc1ccc(OP(C)(=O)Nc2ccc(Br)cc2)cc1 (stereo not drawn)	inactive: -4.1%
CCOC(=O)c1ccc(NP(C)(=O)Oc2ccc(Cl)cc2)cc1 (stereo not drawn)	inactive: -12.1%
CP(=O)(OC12CC3CC(CC(C3)C1)C2)OC12CC3CC(CC(C3)C1)C2	inactive: -1%
CN(C)CCOC(=O)C(O)(c1ccccc1)C1CCCCC1 (stereo not drawn)	inactive: -0.1%
COc1ccc(OP(C)(=O)Nc2cccc(Br)c2)cc1 (stereo not drawn)	inactive: -2.3%
Cc1ccccc1NP(C)(=O)Nc1ccccc1C	inactive: 0.2%
CCOP(C)(=S)SCC(=O)NC(C)(CC)C(=O)O (stereo not drawn)	inactive: 1%
O=C(OCCN1CCN(CCOCc2ccccc2)CC1)C(O)(c1ccccc1)c1ccccc1	inactive: -6.28%
CP(=O)(Nc1ccccc1F)Oc1ccccc1 (stereo not drawn)	inactive: -0.4%
CC(C)c1ccc(OP(C)(=O)Nc2ccc(SC(F)(F)F)cc2)cc1 (stereo not drawn)	inactive: -1.95%
CCOC(=O)c1ccc(NP(C)(=O)Oc2ccc(F)cc2)cc1 (stereo not drawn)	inactive: -2.53%
